Tests used:
[1] = biological target: T1, rat NPRA (Rattus norvegicus, UniProt P18910); experiment: Rat NPRA cGMP activity assay (HTRF) in HEK293 cells overexpressing NPRA; format: cell-based; settings: cGMP Assay (EC50, pM) w/Casein rNPRA, assay buffer with 0.1% casein
T1 construct: Full-Length cDNA Cloning and Generation of Cell Lines Overexpressing Natriuretic Peptide Receptors (NPRs); expressed in transfected cells; host or cells: Jump-in T-Rex HEK293 cells, pJTI R4 CMV-TO MCS pA vector, tetracycline induction
T1 sequence (P18910 29-1057): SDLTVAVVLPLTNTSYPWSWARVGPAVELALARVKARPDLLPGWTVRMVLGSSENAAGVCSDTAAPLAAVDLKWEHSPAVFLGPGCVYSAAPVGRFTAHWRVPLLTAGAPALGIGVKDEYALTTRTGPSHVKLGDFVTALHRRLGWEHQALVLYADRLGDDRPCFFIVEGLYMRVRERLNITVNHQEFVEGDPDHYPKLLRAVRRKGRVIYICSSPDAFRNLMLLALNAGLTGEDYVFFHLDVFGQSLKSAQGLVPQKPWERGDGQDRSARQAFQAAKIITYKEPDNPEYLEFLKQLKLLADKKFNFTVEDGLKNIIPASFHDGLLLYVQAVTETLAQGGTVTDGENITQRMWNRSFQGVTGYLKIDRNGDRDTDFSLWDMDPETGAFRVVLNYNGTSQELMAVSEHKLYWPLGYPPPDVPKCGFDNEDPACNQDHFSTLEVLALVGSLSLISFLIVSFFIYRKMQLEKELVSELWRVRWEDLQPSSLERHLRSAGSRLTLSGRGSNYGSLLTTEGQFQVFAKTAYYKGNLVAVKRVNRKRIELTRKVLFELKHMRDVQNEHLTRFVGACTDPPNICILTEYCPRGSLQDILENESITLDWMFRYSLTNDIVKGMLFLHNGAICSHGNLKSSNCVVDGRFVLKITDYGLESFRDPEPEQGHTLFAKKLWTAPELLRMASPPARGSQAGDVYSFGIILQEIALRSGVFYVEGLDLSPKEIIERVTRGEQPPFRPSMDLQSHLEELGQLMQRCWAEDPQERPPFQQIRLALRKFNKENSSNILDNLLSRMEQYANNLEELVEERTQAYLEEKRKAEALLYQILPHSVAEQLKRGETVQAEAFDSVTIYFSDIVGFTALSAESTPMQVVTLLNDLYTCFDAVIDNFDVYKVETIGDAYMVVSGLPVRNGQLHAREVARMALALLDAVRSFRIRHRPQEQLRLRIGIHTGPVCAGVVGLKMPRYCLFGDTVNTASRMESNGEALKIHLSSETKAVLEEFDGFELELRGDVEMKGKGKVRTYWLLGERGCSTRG
Description: All sequences were verified by full-length sequencing performed by ACGT DNA Sequencing Services (Wheeling, IL). The target cDNA was cloned into pJTI R4 CMV-TO MCS pA vector and then co-transfected with pJT1R4 Int vector into Jump-in™ T-Rex™ HEK293 cells for mammalian inducible expression using Jump-in™ T-Rex™ HEK293 kit and Lipofectamine LTX and Plus Reagent following manufacturer's protocols, as briefly described below.
Jump-in™ T-Rex™ HEK293 cells were plated in a BioCOAT® poly-D-lysine coated 6-well plate (Becton Dickinson, cat no. 354413) at 1 million cells/well in 2 mL culture medium and incubated for 18 h at 37° C. and 5% CO2 to 50-70% confluence. A cDNA mix was made in a 50 mL tube by adding 1.5 μg target cDNA, 1.5 μg pJT1R4 Int vector, 3 μL Plus Reagent, and 300 μL Opti-MEM I sequentially into the tube. A reagent mix was made in a separate 50 mL tube by adding 7.5 μL Lipofectamine LTX into 300 μL Opti-MEM I. The mixtures were incubated for 5 min at room temperature. The cDNA mix was then transferred into the reagent mix, mixed well, and incubated for additional 30 min at room temperature. A 500 μL of cDNA/Lipofectamine complex was then transferred to the wells of the cell plate in which the culture medium was changed to 2 mL of transfection medium containing DMEM with 4.5 g/L D-glucose supplemented with 10% FBS-HI and 20 mM HEPES. Transfected cells were cultured for 48 h in an incubator at 37° C. and 5% CO2. A subclone or pool from each overexpressing cell line was maintained in culture medium with the addition of 2 mg/mL G418 sulfate for the clone selection based on its built-in resistance to G418 sulfate for at least 3 weeks with medium changed every 2-3 days.
NPRs were overexpressed in T-Rex™ HEK293 cells following the induction with 300 ng/mL tetracycline in culture medium for 48 h. Induced cell lines in an exponential growth phase were treated with 0.05% trypsin-EDTA for a few seconds at room temperature, harvested in cell medium containing FBS to neutralize the trypsin, counted, and cryopreserved at the density of 2 million cells/mL in cell preservation solution containing FBS-HI with 5% DMSO. Cryopreserved cells were stored at −80° C. for a few days prior to transferring to a liquid nitrogen tank. Induced cell lines were then used for suspension assays to measure the activity of polypeptides to stimulate cGMP production in cGMP assays or for the preparation of cell membranes to measure the binding activity of polypeptides in competitive radioligand binding assays, as described below.
Test polypeptides were added starting at 10 μM concentration and at 10-fold decreasing concentrations to obtain 8-point concentration-response curves (i.e., 10 μM to 1 pM). The quantity of cGMP generated was detected using HTRF® technology and normalized to maximum amount produced by 100 nM amidated rat ANP and the minimum amount produced by assay buffer. Detailed steps are outlined below.
Stock solutions of test polypeptides (2 mM) dissolved in DMSO were first diluted 100-fold in assay buffer containing HBSS with Ca^2+ and Mg^2+, 5 mM HEPES, 0.5 mM IBMX, and 0.1% BSA or 0.1% casein (pH 7.4). The polypeptides were further serially diluted in 1:10 dilution steps in assay buffer containing 0.1% BSA or 0.1% casein to generate 8-point 2× working stock solutions ranging from 20 μM to […].
A 10 μL cell suspension containing 4000 cells was plated in Costar® half-area white opaque 96-well plates (Corning, cat no. 3693). Then 10 μL of assay buffer (basal activity), 200 nM of amidated rat ANP (maximum activity) or 2× working stock solutions of test polypeptides were transferred into the plate. Final concentration of DMSO in each well was 0.5%. The plate was shaken for 15 sec and then incubated for 40 min at room temperature.
The cGMP generated was measured using cGMP kit following the manufacturer's directions, as described below.

[2] = biological target: T2, human NPRA (Homo sapiens, UniProt P16066); experiment: Human NPRA cGMP activity assay (HTRF) in HEK293 cells overexpressing NPRA; format: cell-based; settings: cGMP Assay (EC50, pM) w/Casein hNPRA, assay buffer with 0.1% casein
T2 construct: Full-Length cDNA Cloning and Generation of Cell Lines Overexpressing Natriuretic Peptide Receptors (NPRs); expressed in transfected cells; host or cells: Jump-in T-Rex HEK293 cells, pJTI R4 CMV-TO MCS pA vector, tetracycline induction
T2 sequence (P16066 33-1061): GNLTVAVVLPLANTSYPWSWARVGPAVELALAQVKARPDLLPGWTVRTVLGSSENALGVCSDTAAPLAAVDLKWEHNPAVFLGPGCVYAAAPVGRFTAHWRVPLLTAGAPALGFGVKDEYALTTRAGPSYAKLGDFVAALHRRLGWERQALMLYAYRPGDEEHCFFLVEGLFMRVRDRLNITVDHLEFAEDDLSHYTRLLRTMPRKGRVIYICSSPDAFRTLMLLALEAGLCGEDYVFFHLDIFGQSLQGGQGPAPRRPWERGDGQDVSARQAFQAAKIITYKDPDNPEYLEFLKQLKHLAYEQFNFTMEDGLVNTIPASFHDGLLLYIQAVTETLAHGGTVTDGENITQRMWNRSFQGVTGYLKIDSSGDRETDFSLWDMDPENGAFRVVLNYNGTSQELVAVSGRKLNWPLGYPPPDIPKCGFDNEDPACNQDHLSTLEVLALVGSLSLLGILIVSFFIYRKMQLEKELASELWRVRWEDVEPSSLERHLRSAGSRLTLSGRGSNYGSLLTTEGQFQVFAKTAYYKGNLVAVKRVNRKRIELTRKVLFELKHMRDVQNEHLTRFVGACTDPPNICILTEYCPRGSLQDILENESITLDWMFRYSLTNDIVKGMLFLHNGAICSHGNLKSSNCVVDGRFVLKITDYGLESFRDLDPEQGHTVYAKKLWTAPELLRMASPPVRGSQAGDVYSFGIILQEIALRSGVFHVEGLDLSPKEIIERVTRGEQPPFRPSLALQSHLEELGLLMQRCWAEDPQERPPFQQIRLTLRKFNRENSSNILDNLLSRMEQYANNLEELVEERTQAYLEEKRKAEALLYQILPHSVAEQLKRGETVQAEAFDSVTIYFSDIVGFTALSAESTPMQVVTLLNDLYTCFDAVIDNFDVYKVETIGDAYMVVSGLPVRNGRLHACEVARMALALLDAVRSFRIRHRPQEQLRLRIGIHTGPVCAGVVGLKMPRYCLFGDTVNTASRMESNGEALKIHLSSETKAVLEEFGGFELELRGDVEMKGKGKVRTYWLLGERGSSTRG
Procedure, shortened: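 cGMP measured by HTRF and scaled between buffer (minimum) and 100 nM amidated rat ANP (maximum). Polypeptides in 10-fold steps from 10 μM to 1 pM, 0.5% DMSO, 0.5 mM IBMX, 40 min at room temperature, on induced NPRA-overexpressing HEK293 cells.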

Structure (SMILES) | EC50 [1] | EC50 [2]
CC[C@H](C)[C@@H]1NC(=O)[C@H](CCCNC(=N)N)NC(=O)[C@H](CC(=O)O)NC(=O)[C@H]([C@@H](C)CC)NC(=O)[C@H](CCCNC(=N)N)NC(=O)CNC(=O)CNC(=O)[C@H](Cc2ccccc2)NC(=O)[C@@H](NC(=O)[C@H](CO)NC(=O)[C@H](CO)NC(=O)[C@H](CCCNC(=N)N)NC(=O)CCNC(=O)[C@H](CCCCN)NC(=O)[C@H](CO)NC(=O)CNC(=O)[C@H](CCCCN)NC(=O)[C@H](CCC(=O)O)NC(=O)[C@H](CCCCN)NC(=O)[C@H](CCC(=O)O)NC(=O)[C@H](CCCCN)NC(=O)[C@H](CCC(=O)O)NC(=O)CC[C@H](NC(=O)CCCCCCCCCCCCCCCCCCC(=O)O)C(=O)O)CSCSC[C@@H](C(=O)N2CCC[C@H]2C(=O)N[C@@H](CO)C(=O)N[C@@H](Cc2ccccc2)C(=O)N[C@@H](CCCNC(=N)N)C(=O)N[C@@H](Cc2c[nH]cn2)C(=O)NCC(=O)NCC(=O)N2CCC[C@H]2C(=O)N[C@@H](CO)C(=O)N[C@@H](CO)C(=O)NCC(=O)N[C@@H](C)C(=O)N2CCC[C@H]2C(=O)N2CCC[C@H]2C(=O)N2CCC[C@H]2C(=O)N[C@@H](CO)C(N)=O)NC(=O)CNC(=O)[C@H](CC(C)C)NC(=O)CNC(=O)[C@H](CO)NC(=O)[C@H](Cc2ccc(O)cc2)NC(=O)[C@H](Cc2c[nH]cn2)NC(=O)CNC1=O [Example 65] | 7410 pM | 614 pM
CC[C@H](C)[C@@H]1NC(=O)[C@H](CCCNC(=N)N)NC(=O)[C@H](CC(=O)O)NC(=O)[C@H]([C@@H](C)CC)NC(=O)[C@H](CCCNC(=N)N)NC(=O)CNC(=O)CNC(=O)[C@H](Cc2ccccc2)NC(=O)[C@@H](NC(=O)[C@H](CO)NC(=O)[C@H](CO)NC(=O)[C@H](CCCNC(=N)N)NC(=O)CCNC(=O)[C@H](CCCCN)NC(=O)[C@H](CCC(=O)O)NC(=O)COCCOCCNC(=O)COCCOCCNC(=O)COCCOCCNC(=O)COCCOCCNC(=O)COCCOCCNC(=O)COCCOCCNC(=O)CNC(=O)[C@H](CCCCN)NC(=O)[C@H](CCC(=O)O)NC(=O)[C@H](CCCCN)NC(=O)[C@H](CCC(=O)O)NC(=O)[C@H](CCCCN)NC(=O)[C@H](CCC(=O)O)NC(=O)CC[C@H](NC(=O)CCCCCCCCCCCCCCCCCCC(=O)O)C(=O)O)CSCSC[C@@H](C(=O)N2CCC[C@H]2C(=O)N[C@@H](CO)C(=O)N[C@@H](Cc2ccccc2)C(=O)N[C@@H](CCCNC(=N)N)C(=O)N[C@@H](Cc2c[nH]cn2)C(=O)NCC(=O)N[C@@H](CO)C(=O)N2CCC[C@H]2C(=O)N[C@@H](CO)C(=O)N[C@@H](CO)C(=O)NCC(=O)N[C@@H](C)C(=O)N2CCC[C@H]2C(=O)N2CCC[C@H]2C(=O)N2CCC[C@H]2C(=O)N[C@@H](CO)C(N)=O)NC(=O)CNC(=O)[C@H](CC(C)C)NC(=O)CNC(=O)[C@H](CO)NC(=O)[C@H](Cc2ccc(O)cc2)NC(=O)[C@H](Cc2c[nH]cn2)NC(=O)CNC1=O [Example 98] | 17900 pM | 1840 pM
